Source: EP2682119A1, “Aromatic N-heterocycle derivatives for use as medicine” (Université Libre de Bruxelles, priority 2012, dated 2014)
pKi: −log10 of the molar value.

Chains of the proteins cited; added tags and fusions are not shown.
UniProt P31645, whole entry: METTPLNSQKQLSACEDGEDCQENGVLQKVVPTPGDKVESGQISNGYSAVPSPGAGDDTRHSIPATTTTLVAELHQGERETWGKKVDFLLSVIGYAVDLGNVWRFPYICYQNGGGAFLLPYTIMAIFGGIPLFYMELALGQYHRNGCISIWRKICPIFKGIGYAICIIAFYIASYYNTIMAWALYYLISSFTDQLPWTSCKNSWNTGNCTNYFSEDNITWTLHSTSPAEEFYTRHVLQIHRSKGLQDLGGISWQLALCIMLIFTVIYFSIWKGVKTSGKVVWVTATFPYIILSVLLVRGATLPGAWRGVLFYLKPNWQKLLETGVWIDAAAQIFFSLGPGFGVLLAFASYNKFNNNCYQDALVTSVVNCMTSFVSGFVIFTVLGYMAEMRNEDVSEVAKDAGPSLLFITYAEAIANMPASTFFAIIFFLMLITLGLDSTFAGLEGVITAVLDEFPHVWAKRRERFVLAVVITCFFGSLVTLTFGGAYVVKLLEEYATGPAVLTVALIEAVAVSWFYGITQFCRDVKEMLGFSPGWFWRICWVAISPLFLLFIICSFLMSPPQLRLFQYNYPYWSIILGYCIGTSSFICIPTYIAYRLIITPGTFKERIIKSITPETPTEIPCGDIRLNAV

Target: human 5-HT transporter (hSERT) (Homo sapiens, UniProt P31645)
Assay: 5-HT reuptake inhibition, [3H]5-HT uptake in transfected HEK-293 MSR cells
Details: read-out: Serotonin Ki
Experimental: Assesment of 5-HT reuptake inhibition.
Inhibition assessment of 5-HT reuptake was performed as follows. The mammalian expression plasmid pcDNA3.1 containing human 5-HT transporter (hSERT) cDNA has been described previously. HEK-293 MSR cells (Invitrogen) were cultured as monolayers in Dulbecco's modified Eagle's medium (BioWhitaker) supplemented with 10% fetal calf serum (Invitrogen), 100 units/mL penicillin, 100 µg/mL streptomycin (BioWhitaker) and 6 µg/mL Geneticin (Invitrogen) at 95% humidity, 5% p(CO2) and 37°C. Cells were detached from the culture flasks by Versene (Invitrogen) and trypsin/EDTA (BioWhitaker) treatment for subculturing or seeding into white TC-microtiter plates (Nunc). Transfection and measurement of [^3H]5-HT (PerkinElmer Life Sciences) uptake was performed as described by Larsen et al. (2004) except that HEK-293 MSR cells (Invitrogen) were used instead of COS-1 cells.

## NCCc1c[nH]c2ccc(F)cc12
  pKi: 7.70 to 8.00
